Results: article PMC4876925 (Nano research, 2016)

Tested on: WEHI-164 fibrosarcomas
Experiment: Tumor and organ uptake of IRDye 680 conjugates in WEHI-164 tumor-bearing mice
Type: in vivo
Details: 20 µg i.v., 24 h; ratio CD31+CD45− / CD45+ cells

*HSA/IRDye 680: *HSA labeled with IRDye 680, control
Relative staining of endothelial cells/leukocytes versus controls: but not for *HSA/IRDye 680 compared to controls
